Literature values as cited in PMC7716884 (Science translational medicine, 2020).

Assays:
[1] = not given; remark: listed apart in the source

Substance: insulin
- Duration of action in humans: 4 h
- Duration of action in pigs [1]: 2 h
